Each structure is given as a SMILES string. Values joined by “and” are separate entries in the source; they are usually repeats but may differ in a detail not shown here. Equal entries are not always repeated. The entries are a selection whose mix differs from that of the whole data set. Some of these compounds have results that are not shown, active ones among them. Results filed as inconclusive are left out. Active and inactive are the calls of the source. The call rests on the fitted dose curve; in most records, active means well fitted inhibition curve with a large enough effect; inconclusive means small, poorly fitted or top-dose-only effect; inactive means no such curve, though single readings can be large or run the other way.
On the % scale 0 is the no-effect control and ±100 the full control effect.

Sequences of proteins named here, by UniProt entry; tags and fusion partners are left off.
UniProt Q9UIF8, whole entry: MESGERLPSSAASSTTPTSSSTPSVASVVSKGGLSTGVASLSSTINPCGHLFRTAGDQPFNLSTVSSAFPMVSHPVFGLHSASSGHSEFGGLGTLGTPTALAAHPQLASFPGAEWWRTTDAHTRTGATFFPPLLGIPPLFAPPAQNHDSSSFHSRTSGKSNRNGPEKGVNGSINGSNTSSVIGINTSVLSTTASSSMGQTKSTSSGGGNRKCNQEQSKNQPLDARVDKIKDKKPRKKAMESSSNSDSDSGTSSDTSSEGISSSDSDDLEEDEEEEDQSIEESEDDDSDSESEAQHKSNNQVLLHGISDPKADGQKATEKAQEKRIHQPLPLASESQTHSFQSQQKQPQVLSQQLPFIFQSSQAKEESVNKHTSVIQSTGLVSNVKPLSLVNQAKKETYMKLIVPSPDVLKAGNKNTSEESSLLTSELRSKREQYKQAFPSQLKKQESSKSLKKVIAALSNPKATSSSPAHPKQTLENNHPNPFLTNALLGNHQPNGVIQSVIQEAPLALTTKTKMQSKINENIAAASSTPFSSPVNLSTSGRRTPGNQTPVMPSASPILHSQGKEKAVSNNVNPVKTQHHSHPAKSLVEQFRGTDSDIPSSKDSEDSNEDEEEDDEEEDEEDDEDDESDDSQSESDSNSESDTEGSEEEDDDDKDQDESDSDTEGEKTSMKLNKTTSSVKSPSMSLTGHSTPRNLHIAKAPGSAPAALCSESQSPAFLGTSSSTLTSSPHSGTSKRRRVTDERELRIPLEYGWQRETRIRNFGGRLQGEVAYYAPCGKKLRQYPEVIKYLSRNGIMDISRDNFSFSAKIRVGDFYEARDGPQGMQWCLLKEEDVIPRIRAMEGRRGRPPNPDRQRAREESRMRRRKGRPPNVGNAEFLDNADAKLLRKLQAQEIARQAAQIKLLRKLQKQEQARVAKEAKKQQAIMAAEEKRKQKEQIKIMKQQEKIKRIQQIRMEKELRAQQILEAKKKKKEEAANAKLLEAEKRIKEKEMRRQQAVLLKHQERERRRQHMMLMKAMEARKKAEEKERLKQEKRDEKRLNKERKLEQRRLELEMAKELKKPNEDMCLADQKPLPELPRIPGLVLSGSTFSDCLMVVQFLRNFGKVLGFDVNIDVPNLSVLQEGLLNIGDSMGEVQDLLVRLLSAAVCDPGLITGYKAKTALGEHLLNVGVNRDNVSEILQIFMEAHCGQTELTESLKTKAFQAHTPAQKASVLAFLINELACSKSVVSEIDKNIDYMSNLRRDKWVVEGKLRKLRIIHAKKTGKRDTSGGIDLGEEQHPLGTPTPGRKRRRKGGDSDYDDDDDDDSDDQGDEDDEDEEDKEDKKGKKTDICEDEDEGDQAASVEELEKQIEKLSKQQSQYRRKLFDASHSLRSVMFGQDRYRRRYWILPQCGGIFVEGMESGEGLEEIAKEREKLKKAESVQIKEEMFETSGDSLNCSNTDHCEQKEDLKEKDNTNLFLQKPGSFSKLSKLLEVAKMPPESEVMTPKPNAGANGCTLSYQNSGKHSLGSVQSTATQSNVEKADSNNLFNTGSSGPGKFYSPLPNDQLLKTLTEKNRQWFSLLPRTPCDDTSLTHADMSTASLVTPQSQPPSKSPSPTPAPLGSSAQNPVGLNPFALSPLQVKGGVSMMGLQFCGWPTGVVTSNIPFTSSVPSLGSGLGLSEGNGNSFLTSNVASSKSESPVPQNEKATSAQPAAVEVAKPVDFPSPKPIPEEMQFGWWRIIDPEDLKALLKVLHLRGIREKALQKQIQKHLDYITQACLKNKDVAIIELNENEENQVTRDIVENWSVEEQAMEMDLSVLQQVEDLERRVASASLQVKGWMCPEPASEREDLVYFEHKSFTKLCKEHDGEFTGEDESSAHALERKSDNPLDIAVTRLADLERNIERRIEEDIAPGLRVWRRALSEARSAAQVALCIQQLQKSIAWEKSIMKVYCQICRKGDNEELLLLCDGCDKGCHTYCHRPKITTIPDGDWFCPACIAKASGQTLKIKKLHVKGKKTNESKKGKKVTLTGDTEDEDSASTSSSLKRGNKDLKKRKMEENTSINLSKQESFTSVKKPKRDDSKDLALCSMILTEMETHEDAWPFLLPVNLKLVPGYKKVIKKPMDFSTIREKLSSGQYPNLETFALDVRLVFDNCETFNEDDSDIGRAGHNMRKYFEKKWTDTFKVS

The experiment deals with Bromodomain adjacent to zinc finger domain protein 2B (Homo sapiens) (UniProt Q9UIF8). As to the kind of experiment: qHTS Assay for Inhibitors of BAZ2B. Further: nearly all actives have a fitted effect of over 60% in size. As to conditions: AlphaScreen BAZ2B-H3K14Ac peptide displacement; at 114 µM (top of the series) unless noted.
For the compound `O=C(NCC1(N2CCCCC2)CCCCC1)c1cc([N+](=O)[O-])ccc1Cl`, the activity change, negative = inhibition is inactive: 10.5%.
To `CN1[C@@H]2CC[C@H]1CC(OC(=O)C(O)(c1ccccc1)c1ccccc1)C2` (some centres not stated) belongs inactive: -0.117%.
To `CCN(CC)CC(C)C(C)OC(=O)C(O)(c1ccccc1)c1ccccc1` (configuration not stated) belongs inactive: 0.838%.
In the case of `CN(C)C1(CNC(=O)c2cccc(Cl)c2)CCCCC1` it was inactive: -1.96%; in that of `COc1cc(SC)ccc1C(=O)NCC1(N(C)C)CCCCC1`, inactive: 8.94%.
For `CC(C)N1C(=O)CC2(CCN(CCOC(=O)C(O)(c3ccccc3)c3ccccc3)CC2)C1=O`, the activity change, negative = inhibition was inactive: 1.16% [at 57.1 µM].
In the case of `Cc1ccc(C(=O)NCC2(N3CCCCC3)CCCCC2)cc1` it was inactive: -12.1%; in that of `CN(C)C1(CNC(=O)c2ccccc2F)CCCCC1`, inactive: -1.6%.
In the case of `Cc1ccccc1C(=O)NCC1(N2CCCCC2)CCCCC1` it was inactive: -11.5%; in that of `CN(C)C1(CNC(=O)c2ccccc2[N+](=O)[O-])CCCCC1`, inactive: -31.1%; in that of `CN(C)c1ccc(C(=O)NCC2(N(C)C)CCCCC2)cc1`, inactive: 3.86%.
For `CN(C)C1CCCC1OC(=O)C(O)(c1ccccc1)c1ccccc1` (configuration not stated), the activity change, negative = inhibition is inactive: 4.92%.
To `CCCCOc1ccccc1C(=O)NCC1(N(C)C)CCCCC1` belongs inactive: -12.2%; to `O=C(NCC1(N2CCCCC2)CCCCC1)c1cc(F)c(F)cc1Cl`, inactive: 4.65%.
As to `COc1ccc(C(=O)NCC2(N(C)C)CCCCC2)cc1`, the activity change, negative = inhibition is inactive: -30.1%.
`CCOc1cccc(C(=O)NCC2(N(C)C)CCCCC2)c1`: the activity change, negative = inhibition is inactive: -0.738%.
In the case of `CCN1CCCC(OC(=O)C2(O)c3ccccc3C=Cc3ccccc32)C1` (configuration not stated) it was inactive: 6.59%.
To `Cc1cc(C(=O)NCC2(N3CCCCC3)CCCCC2)ccc1[N+](=O)[O-]` belongs inactive: -14.1%.
To `O=C(NCC1(N2CCCCC2)CCCCC1)c1cccc(Br)c1` belongs inactive: 4.92%; to `CN(C)C1(CNC(=O)c2ccc(Br)cc2)CCCCC1`, inactive: -26.3%.
Turning to `COc1cc(C(=O)NCC2(N(C)C)CCCCC2)c([N+](=O)[O-])cc1OC`, the activity change, negative = inhibition is inactive: -1.46%.
In the case of `COc1cccc(C(=O)NCC2(N3CCCCC3)CCCCC2)c1` it was inactive: -2.2%; in that of `COc1ccc(Cl)cc1C(=O)NCC1(N(C)C)CCCCC1`, inactive: 11.7%; in that of `COc1ccc(C(=O)NCC2(N(C)C)CCCCC2)cc1Cl`, inactive: -2.93%.
For the compound `O=C(NCC1(N2CCCCC2)CCCCC1)c1cccc(Cl)c1`, the activity change, negative = inhibition was inactive: -5.63%.
In the case of `O=C(OC1CN2CCC1CC2)C(CO)(c1ccccc1)c1ccccc1` (configuration not stated) it was inactive: -3.91%.
Regarding `CC(C)COc1ccc(C(=O)NCC2(N(C)C)CCCCC2)cc1`, the activity change, negative = inhibition is inactive: -10.1%.
To `Cc1cccc(C(=O)NCC2(N(C)C)CCCCC2)c1` belongs inactive: 0.971%.
In the case of `COc1cc(C(=O)NCC2(N(C)C)CCCCC2)cc(OC)c1OC` it was inactive: 1.91%.
For the compound `COc1ccc(Br)c(C(=O)NCC2(N3CCCCC3)CCCCC2)c1`, the activity change, negative = inhibition was inactive: -4.69%.
`CC(C)Oc1ccc(C(=O)NCC2(N(C)C)CCCCC2)cc1`: the activity change, negative = inhibition is inactive: -5.47% and inactive: -25.8%.
In the case of `CN(C)c1cccc(C(=O)NCC2(N(C)C)CCCCC2)c1` it was inactive: 4.91%.

The values are drawn from PubChem BioAssay AID504333 (National Center for Advancing Translational Sciences (NCATS), 2011).
